Measurements: patent US20050130909A1 (priority 2002, published 2005)

System: N,N′-diacetyl-Lys-D-Ala-D-Ala
Experiment: ITC of binding to tri-peptide cell-wall analog, with and without HSA
Settings: 25 ° C.

CN[C@H]1C(=O)N[C@@H]2Cc3ccc(cc3)Oc3cc4cc(c3O[C@@H]3O[C@H](C(=O)O)[C@@H](O)[C@H](O)[C@H]3NC(=O)CCCCCCCCC(C)C)Oc3ccc(cc3Cl)[C@@H](O)[C@@H]3NC(=O)[C@H](NC(=O)[C@@H]4NC(=O)[C@@H](NC2=O)c2cc(cc(O)c2Cl)Oc2cc1ccc2O)c1ccc(O)c(c1)-c1c(O[C@H]2O[C@H](CO)[C@@H](O)[C@H](O)[C@@H]2O)cc(O)cc1[C@@H](C(=O)NCCCN(C)C)NC3=O [Dalbavancin] was tested. Which Kass (with HSA 13.6 μM) did it give?
The Kass was 118000 M⁻¹.

And the Kass (with HSA 80.7 μM)?
The Kass was 27600 M⁻¹.

What about the Kd (with HSA 80.7 μM, read-out: Kdiss) of the same compound?
The Kd was 36.2 µM.
